# Measured values: US20260242485A1 (LEPU BIOPHARMA, published 2026)
# By UniProt entry, the sequences of proteins in these tests, tags left out. Residues count along the entry.
# UniProt P51654, 25-554 limits assumed: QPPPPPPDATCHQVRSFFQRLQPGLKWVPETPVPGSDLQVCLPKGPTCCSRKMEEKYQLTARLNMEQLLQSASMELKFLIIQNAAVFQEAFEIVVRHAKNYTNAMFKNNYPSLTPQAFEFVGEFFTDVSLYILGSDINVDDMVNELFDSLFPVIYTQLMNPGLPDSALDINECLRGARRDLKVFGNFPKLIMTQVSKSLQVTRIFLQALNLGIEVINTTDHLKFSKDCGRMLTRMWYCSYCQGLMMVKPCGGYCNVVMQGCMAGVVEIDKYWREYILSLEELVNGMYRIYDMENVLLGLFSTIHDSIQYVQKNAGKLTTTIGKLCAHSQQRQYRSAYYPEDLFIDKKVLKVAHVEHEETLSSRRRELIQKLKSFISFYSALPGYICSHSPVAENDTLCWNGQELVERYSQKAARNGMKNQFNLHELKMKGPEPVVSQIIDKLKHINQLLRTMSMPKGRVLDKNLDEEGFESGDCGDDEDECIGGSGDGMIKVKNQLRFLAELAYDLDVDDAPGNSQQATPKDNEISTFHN
# B1: GPC3-P2C47-hIgG1LALAPG (bispecific antibody)
# heavy: QVQLVQSGAEVKKPGASVKVSCKASGYTFTDYEMHWVRQAPGQGLEWMGAIHPGSGGTAYNQKFKGRVTMTRDTSTSTVYMELSSLRSEDTAVYYCARYYSYAYWGQGTLVTVSSASTKGPSVFPLAPSSKSTSGGTAALGCLVKDYFPEPVTVSWNSGALTSGVHTFPAVLQSSGLYSLSSVVTVPSSSLGTQTYICNVNHKPSNTKVDKKVEPKSCDKTHTCPPCPAPEAAGGPSVFLFPPKPKDTLMISRTPEVTCVVVDVSHEDPEVKFNWYVDGVEVHNAKTKPREEQYNSTYRVVSVLTVLHQDWLNGKEYKCKVSNKALGAPIEKTISKAKGQPREPQVYTLPPSREEMTKNQVSLTCLVKGFYPSDIAVEWESNGQPENNYKTTPPVLDSDGSFFLYSKLTVDKSRWQQGNVFSCSVMHEALHNHYTQKSLSLSPGKGGGGSGGGGSGGGGSGGGGSQVQLVQSGAEVKKPGESLKVSCKASGYTFTSYYMHWVRQAPGQGLEWMGAIEPMYGSTSYAQKFQGRVTMTRDTSTSTVYMELSSLRSEDTAVYYCARGSAYYYDFADYWGQGTLVTVSSGGGGSGGGGSGGGGSSYVLTQPSSVSVAPGQTATISCGGHNIGSKNVHWYQQRPGQSPVLVIYQDNKRPSGIPERFSGSNSGNTATLTISGTQAMDEADYYCQVWDNYSVLFGGGTKLTVL
# light: DIVMTQTPLSLSVTPGQPASISCRSSQSLVHSNGNTYLQWYLQKPGQSPQLLIYKVSNRFSGVPDRFSGSGSGTDFTLKISRVEAEDVGVYYCFQSIHVPYTFGGGTKLEIKRTVAAPSVFIFPPSDEQLKSGTASVVCLLNNFYPREAKVQWKVDNALQSGNSQESVTEQDSKDSTYSLSSTLTLSKADYEKHKVYACEVTHQGLSSPVTKSFNRGEC
# B2: GPC3-45H6E8-hIgG1LALAPG (bispecific antibody)
# heavy: QVQLVQSGAEVKKPGASVKVSCKASGYTFTDYEMHWVRQAPGQGLEWMGAIHPGSGGTAYNQKFKGRVTMTRDTSTSTVYMELSSLRSEDTAVYYCARYYSYAYWGQGTLVTVSSASTKGPSVFPLAPSSKSTSGGTAALGCLVKDYFPEPVTVSWNSGALTSGVHTFPAVLQSSGLYSLSSVVTVPSSSLGTQTYICNVNHKPSNTKVDKKVEPKSCDKTHTCPPCPAPEAAGGPSVFLFPPKPKDTLMISRTPEVTCVVVDVSHEDPEVKFNWYVDGVEVHNAKTKPREEQYNSTYRVVSVLTVLHQDWLNGKEYKCKVSNKALGAPIEKTISKAKGQPREPQVYTLPPSREEMTKNQVSLTCLVKGFYPSDIAVEWESNGQPENNYKTTPPVLDSDGSFFLYSKLTVDKSRWQQGNVFSCSVMHEALHNHYTQKSLSLSPGKGGGGSGGGGSGGGGSGGGGSEVQLQQSGAELVRSGASVKLSCTASGFNIKDYYMQWVKQRPEQGLEWIGWIDPENGDTEYAPKFQGKATMTADTSSNTAYLQLSSLTSEDTAVYYCTTGGNYVDWGQGTTLTVSSGGGGSGGGGSGGGGSDIVMTQSQKFMSTSVGDRVSITCKASQNVGTAVAWYQQKPGQSPKLLIYSASNRYTGVPDRFTGSGSGTDFTLTISNMQSEDLADYFCQQYSSYPLLTFGAGTNLELK
# light: B1 light
# Target: T1, human GPC3 on HepG2 cells (human, UniProt P51654 25-554)
# T1 construct: whole, on cells; also called GPC3-positive HepG2 cells
# Assay: flow cytometry, HepG2 cells (GPC3 positive), geometric mean
row,Binder,EC50 (read off the curve)
1,B1,~0.3 nM
2,B2,~0.3 nM
